Data: ChEMBL document CHEMBL1141492, “Potent, exceptionally selective, orally bioavailable inhibitors of TNF-alpha Converting Enzyme (TACE): novel 2-substituted-1H-benzo[d]imidazol-1-yl)methyl)benzamide P1' substituents” (Bioorg Med Chem Lett, 2008)

Target: T1, Disintegrin and metalloproteinase domain-containing protein 10 (Homo sapiens, UniProt O14672)
T1 sequence (O14672 whole entry): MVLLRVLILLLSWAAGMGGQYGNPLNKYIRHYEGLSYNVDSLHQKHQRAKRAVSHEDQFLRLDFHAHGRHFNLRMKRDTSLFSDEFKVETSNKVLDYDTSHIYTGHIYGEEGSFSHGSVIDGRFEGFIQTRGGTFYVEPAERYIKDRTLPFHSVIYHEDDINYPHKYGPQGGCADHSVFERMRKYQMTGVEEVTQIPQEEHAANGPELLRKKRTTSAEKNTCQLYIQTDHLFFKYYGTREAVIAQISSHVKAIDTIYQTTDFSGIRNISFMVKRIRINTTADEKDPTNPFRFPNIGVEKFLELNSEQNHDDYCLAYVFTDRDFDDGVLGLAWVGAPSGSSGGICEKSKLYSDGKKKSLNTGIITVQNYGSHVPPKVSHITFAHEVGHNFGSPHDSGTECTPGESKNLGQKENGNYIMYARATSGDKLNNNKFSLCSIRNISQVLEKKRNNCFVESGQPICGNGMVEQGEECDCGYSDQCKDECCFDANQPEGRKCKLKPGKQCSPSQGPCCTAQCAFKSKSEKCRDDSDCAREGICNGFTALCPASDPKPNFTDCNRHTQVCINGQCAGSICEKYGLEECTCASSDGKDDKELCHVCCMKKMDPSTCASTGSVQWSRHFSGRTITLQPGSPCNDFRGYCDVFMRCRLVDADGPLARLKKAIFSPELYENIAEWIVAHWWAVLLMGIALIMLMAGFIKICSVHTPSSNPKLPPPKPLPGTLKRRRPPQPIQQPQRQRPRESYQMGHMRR
Test: Inhibition of ADAM10

## O=C(N[C@@H]1CCOC[C@@H]1C(=O)NO)c1ccc(Cn2c(C(F)(F)F)nc3ccccc32)cc1
  pKi: < 5.00

pKi: −log10 of the molar value.
